Reference: patent US20230047816A1 (priority 2018, published 2023)

Sequences of proteins named here, by UniProt entry; tags and fusion partners are left off.
UniProt Q16875, whole entry: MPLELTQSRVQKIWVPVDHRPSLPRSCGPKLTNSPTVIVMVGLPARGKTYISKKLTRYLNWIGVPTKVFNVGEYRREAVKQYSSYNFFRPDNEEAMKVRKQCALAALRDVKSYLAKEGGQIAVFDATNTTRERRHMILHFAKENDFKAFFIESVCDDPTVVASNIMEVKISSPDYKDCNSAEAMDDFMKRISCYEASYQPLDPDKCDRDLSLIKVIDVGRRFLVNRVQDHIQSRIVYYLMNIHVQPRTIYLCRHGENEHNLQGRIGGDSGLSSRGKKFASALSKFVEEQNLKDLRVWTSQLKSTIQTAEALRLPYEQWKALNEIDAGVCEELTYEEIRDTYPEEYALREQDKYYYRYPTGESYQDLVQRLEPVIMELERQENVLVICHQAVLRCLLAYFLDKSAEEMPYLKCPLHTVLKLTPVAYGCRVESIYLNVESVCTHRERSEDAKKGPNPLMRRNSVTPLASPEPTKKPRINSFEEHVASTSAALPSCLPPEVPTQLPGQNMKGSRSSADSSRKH

Target: Recombinant full length human PFKFB3 (Homo sapiens, UniProt Q16875)
Experiment: PFKFB3 kinase activity assay (ADP production, ADP-Glo)
Conditions: read-out: Enzymatic PFKFB3 activity: IC50; compounds of Formula (VII), example numbering restarted from 1

Structure (SMILES)	IC50 [µM]
CS(C)(=O)=NC(=O)c1ccc(C(=O)Nc2cc(-c3ccc(Cl)cc3Cl)ccc2C(=O)O)c(C(=O)O)c1	< 0.5
COc1ccc(-c2c(C)sc(NC(=O)c3ccc(C(=O)N[C@@H](CO)C(=O)O)cc3C(=O)O)c2C#N)cc1	< 20
CS(C)(=O)=NC(=O)c1ccc(C(=O)O)c(C(=O)Nc2cc(-c3ccc(Cl)cc3Cl)ccc2C(=O)O)c1	0.5 to 2
